Experimental data: paper PMC4191344, “Identification and characterization of Aβ peptide interactors in Alzheimer’s disease by structural approaches” (Frontiers in Aging Neuroscience, 2014)
“And” between values parts separate entries of the source, which are not always exact repeats. Equal entries are not always repeated. Where two headings read alike, the source gives them in different places.

Legend:
[1] = biological target: Transthyretin (TTR), N-terminal 6-histidine tag in place of the signal sequence (human) (UniProt P02766); test: SPR; BIACORE3000; tetrameric His-TTR immobilised on Ni2+-charged NTA chip; Aβ 2.5-50 µM injected for 30 s; HBS-P (10 mM HEPES pH 9.0, 0.15 M NaCl, 0.005% Tween20, 0.5% DMSO); 1:1 Langmuir fit; apparent; three independent experiments
[2] = biological target: Transthyretin (TTR), N-terminal 6-histidine tag in place of the signal sequence (human) (UniProt P02766); test: as above; remark: listed apart in the source

Kd [1]: 38 µM and 53 µM and 98 µM
Kd [2]: 35 to 98 µM
Substance: Amyloid-beta 1-40 peptide (peptide; other documents disagree on this pair)
